Values of other authors, collected in patent US7022306B1, “Process for the production of hydrogen” (UOP LLC, priority 2003, dated 2006).

System: Rat

Butanol
Toxicity LD50 (mg/kg) Oral-Rat: 790 mg/kg
